The values that follow come from patent publication US5759573A, “Cyclodextrin liposomes encapsulating pharmacologic compounds and methods for their use” (DepoTech Corporation, priority 1995, dated 1998).

In general, Cmax refers to the peak of the concentration-time curve.

The data set is described as follows: in vivo. The settings on record: mouse, plasma, ip, 10 mg/kg.

In the case of `CN(Cc1cnc2nc(N)nc(N)c2n1)c1ccc(C(=O)N[C@@H](CCC(=O)O)C(=O)O)cc1` [unencapsulated methotrexate, methotrexate], the concentration peaked (Cmax) at 3.3 ± 0.03 µM.
